# Measured values as given in PMC11510563 (Pharmaceutics, 2024).
# System: RPMI 2650 human nasal epithelial cell barrier
# Experiment: FITC-insulin transcytosis across RPMI 2650 barrier at air-liquid interface
# Type: in vitro ADME
# Settings: for apparent permeability (Papp), raw data of Figure 3b: RPMI 2650 at air-liquid interface, apical to basal, FITC-insulin, 6 h period as a whole
# Method: RPMI 2650 cells were seeded on polystyrene capillary pore membrane inserts (12.07 mm diameter, 0.4 μm pore size; 66564; Greiner Bio-One, Stonehouse, UK) that fit into 12-well plates (250,000 cells in 500 μL of supplemented EMEM in the apical chamber with a further 1 mL of media in the basal chamber). After eight days, liquid-covered culture medium was removed from the apical chamber, and cells were cultured at the air–liquid interface for a further 12–13 days to stimulate the expression of physiologically relevant tight junction and drug transport proteins. Medium was refreshed, and TEER was measured every two to four days using an EVOM2^TM epithelial voltohmeter (World Precision Instruments, Sarasota, FL, USA), with background conductance removed by subtracting acellular readings. TEER of human nasal mucosa is typically 60–180 Ω/cm^2 [18], so only cultures with TEER above 60 Ω/cm^2 were used for transcytosis or viability studies.
substance,measurement,setting,value
insulin,"apparent permeability (Papp), raw data of Figure 3b",replicate 1,0.827
same,"apparent permeability (Papp), raw data of Figure 3b",replicate 2,1.309
same,"apparent permeability (Papp), raw data of Figure 3b",replicate 3,0.9267
same,transcytosis across the RPMI 2650 barrier,"air-liquid interface, 3.4 μM FITC-insulin, up to 6 h",minimal
